From ChEMBL document CHEMBL1134315 (J Med Chem, 2001)

Amino acid sequences for entries named in this document (tags omitted).
UniProt P34972, whole entry: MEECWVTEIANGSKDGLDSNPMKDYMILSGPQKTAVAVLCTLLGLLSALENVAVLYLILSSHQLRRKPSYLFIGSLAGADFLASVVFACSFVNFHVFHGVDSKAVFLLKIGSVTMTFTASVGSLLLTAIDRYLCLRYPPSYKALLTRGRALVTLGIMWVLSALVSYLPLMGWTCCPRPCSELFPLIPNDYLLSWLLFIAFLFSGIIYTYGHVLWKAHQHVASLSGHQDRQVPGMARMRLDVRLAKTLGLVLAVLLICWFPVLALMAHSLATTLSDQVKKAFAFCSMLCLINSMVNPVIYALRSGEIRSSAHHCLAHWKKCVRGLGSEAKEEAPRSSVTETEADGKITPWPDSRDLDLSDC

Biological target: Cannabinoid receptor 2 (Homo sapiens, UniProt P34972)
Assay: Binding affinity to human CB2 cannabinoid receptor using [3H]CP-55940 in HEK293 EBNA transfected cells
Type: cell-based

Question: With `CCCCC/C=C\C/C=C\C/C=C\C/C=C\CCCC(=O)NCCO` [ANANDAMIDE] as the compound, how does the Ki read?
Answer: The Ki was > 1000 nM.
